Patent EP0557345B1, “1,3-BIS- 3-(MONO- OR POLY-HYDROXY)ACYLAMINO-5-(MONO- OR POLY-HYDROXYALKYL)AMINOCARBONYL-2,4,6-TRIIODO-BENZOYL-AMINO]-HYDROXY- OR HYDROXYALKYL-PROPANES, THEIR METHODS OF PREPARATION AND X-RAY CONTRAST MEDIA CONTAINING THEM” (DIBRA S.p.A., priority 1990, dated 1992)

Assay: Solubility in water
Format: physicochemical

| Substance | Solubility in H₂O (at 20°C) [% w/v] | further results |
| --- | --- | --- |
| 1-[3-(L-2-hydroxy-propionyl)amino-5-(1,3-dihydroxyisopropyl)aminocarbonyl-2,4,6-triiodo-benzoyl-amino]-3-[3-(L-2-hydroxy-propionyl)amino-5-[N-methyl-N-(D-1-deoxy-glucitol)]aminocarbonyl-2,4,6-triiodo-benzoyl-amino]-2-hydroxy-propane [Example 13] | > 100 |  |
| 1,3-bis-[N-methyl-N-[3-(L-2-hydroxy-propionyl)amino-5-(1,3-dihydroxy-isopropyl)aminocarbonyl-2,4,6-triiodo-benzoyl]amino]-2-hydroxy-propane [Example 7] |  | Solubility in H₂O (at 22°C): > 100 % w/v |
| 1,3-bis-[N-methyl-N-[3-hydroxyacetylamino-5-[N-methyl-N-(1,3-dihydroxy-isopropyl)]aminocarbonyl-2,4,6-triiodo-benzoyl]amino]-2-hydroxy-propane [Example 18] |  | Solubility in H₂O (at 25°C): 100 % w/v |
| 1,3-bis-[N-methyl-N-[3-[N-methyl-N-(L-2-hydroxy-propionyl)]amino-5-(1,3-dihydroxy-isopropyl)aminocarbonyl-2,4,6-triiodo-benzoyl]amino]-2-hydroxy-propane [Example 27] | 100 |  |
